Target: D(2) dopamine receptor (Rattus norvegicus, UniProt P61169)
Experiment: Ability to inhibit the [3H]spiperone binding to striatum Dopamine receptor D2 was determined in rat
Type: tissue-based

Chains of the proteins cited; added tags and fusions are not shown.
UniProt P61169, whole entry: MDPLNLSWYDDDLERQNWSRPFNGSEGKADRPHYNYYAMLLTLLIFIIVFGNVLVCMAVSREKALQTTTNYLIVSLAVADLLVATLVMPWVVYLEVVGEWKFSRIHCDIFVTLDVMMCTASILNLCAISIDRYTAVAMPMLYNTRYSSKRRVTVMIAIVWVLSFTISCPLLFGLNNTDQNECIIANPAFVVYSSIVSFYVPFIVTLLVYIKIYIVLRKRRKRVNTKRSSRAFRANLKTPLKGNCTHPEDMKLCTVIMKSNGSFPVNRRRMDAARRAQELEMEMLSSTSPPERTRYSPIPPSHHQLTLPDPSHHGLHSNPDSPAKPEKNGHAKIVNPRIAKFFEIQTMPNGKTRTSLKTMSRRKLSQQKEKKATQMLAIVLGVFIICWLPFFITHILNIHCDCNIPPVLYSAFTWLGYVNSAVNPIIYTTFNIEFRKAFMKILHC

Compound: COc1ccccc1N1CCN(CCNC(=O)c2ccc(F)cc2)CC1
- Ki: 5 nM
